Cyclic peptide permeability, from CycPeptMPDB

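The data file gives no further conditions (lipid, pH, time, direction or concentration), and values from different papers need not be comparable. The list need not hold all peptides of the study. Peptides that the database sets to -10, its floor, are left out.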

PAMPA is the parallel artificial membrane permeability assay, which has no cells and reads passive diffusion.
Values are log10 P with P in cm/s, so -5 is more permeable than -7.

{"smiles": "CC(=O)N1CCC[C@H]1C(=O)N(C)[C@@H](CC(C)C)C(=O)N[C@@H]1C(=O)N[C@@H](CC(C)C)C(=O)N[C@H](CC(C)C)C(=O)N[C@H](CC(C)C)C(=O)N[C@H](C)C(=O)N[C@H](CC(C)C)C(=O)N2CCC[C@H]2C(=O)O[C@@H]1C", "PAMPA (log10 cm/s)": "-6.89"}
{"smiles": "CC(=O)N1CCC[C@@H]1C(=O)N(C)[C@H](CC(C)C)C(=O)N[C@@H]1C(=O)N[C@H](CC(C)C)C(=O)N[C@H](CC(C)C)C(=O)N[C@@H](CC(C)C)C(=O)N(C)[C@H](C)C(=O)N[C@H](CC(C)C)C(=O)N2CCC[C@H]2C(=O)O[C@@H]1C", "PAMPA (log10 cm/s)": "-5.99"}
{"smiles": "CC(=O)N1CCC[C@H]1C(=O)N(C)[C@@H](CC(C)C)C(=O)N[C@@H]1C(=O)N[C@@H](CC(C)C)C(=O)N[C@H](CC(C)C)C(=O)N(C)[C@H](CC(C)C)C(=O)N[C@@H](C)C(=O)N[C@@H](CC(C)C)C(=O)N2CCC[C@H]2C(=O)O[C@@H]1C", "PAMPA (log10 cm/s)": "-7.29"}
{"smiles": "CC(=O)N1CCC[C@@H]1C(=O)N(C)[C@H](CC(C)C)C(=O)N[C@@H]1C(=O)N[C@@H](CC(C)C)C(=O)N[C@H](CC(C)C)C(=O)N(C)[C@H](CC(C)C)C(=O)N[C@@H](C)C(=O)N[C@@H](CC(C)C)C(=O)N2CCC[C@@H]2C(=O)O[C@@H]1C", "PAMPA (log10 cm/s)": "-6.93"}
{"smiles": "CC(=O)N1CCC[C@H]1C(=O)N(C)[C@@H](CC(C)C)C(=O)N[C@@H]1C(=O)N[C@H](CC(C)C)C(=O)N[C@H](CC(C)C)C(=O)N(C)[C@H](CC(C)C)C(=O)N(C)[C@H](C)C(=O)N[C@H](CC(C)C)C(=O)N2CCC[C@@H]2C(=O)O[C@@H]1C", "PAMPA (log10 cm/s)": "-6.26"}
{"smiles": "CC(=O)N1CCC[C@H]1C(=O)N(C)[C@H](CC(C)C)C(=O)N[C@@H]1C(=O)N(C)[C@H](CC(C)C)C(=O)N[C@H](CC(C)C)C(=O)N[C@H](CC(C)C)C(=O)N[C@H](C)C(=O)N[C@@H](CC(C)C)C(=O)N2CCC[C@H]2C(=O)O[C@@H]1C", "PAMPA (log10 cm/s)": "-5.85"}
{"smiles": "CC(=O)N1CCC[C@H]1C(=O)N[C@@H]1C(=O)N[C@H](CC(C)C)C(=O)N(C)[C@H](CC(C)C)C(=O)N[C@@H](CC(C)C)C(=O)N(C)[C@H](CC(C)C)C(=O)N(C)[C@H](C)C(=O)N[C@@H](CC(C)C)C(=O)N2CCC[C@@H]2C(=O)O[C@@H]1C", "PAMPA (log10 cm/s)": "-5.35"}
{"smiles": "CC(=O)N1CCC[C@H]1C(=O)N[C@@H]1C(=O)N[C@H](CC(C)C)C(=O)N(C)[C@@H](CC(C)C)C(=O)N(C)[C@@H](CC(C)C)C(=O)N(C)[C@@H](CC(C)C)C(=O)N[C@H](C)C(=O)N[C@@H](CC(C)C)C(=O)N2CCC[C@@H]2C(=O)O[C@@H]1C", "PAMPA (log10 cm/s)": "-5.12"}
{"smiles": "CC(=O)N1CCC[C@H]1C(=O)N(C)[C@H](CC(C)C)C(=O)N[C@@H]1C(=O)N(C)[C@@H](CC(C)C)C(=O)N(C)[C@H](CC(C)C)C(=O)N(C)[C@@H](CC(C)C)C(=O)N(C)[C@@H](C)C(=O)N[C@H](CC(C)C)C(=O)N2CCC[C@@H]2C(=O)O[C@@H]1C", "PAMPA (log10 cm/s)": "-5.29"}
{"smiles": "CC(=O)N1CCC[C@H]1C(=O)N(C)[C@@H](CC(C)C)C(=O)N[C@@H]1C(=O)N(C)[C@@H](CC(C)C)C(=O)N[C@@H](CC(C)C)C(=O)N(C)[C@H](CC(C)C)C(=O)N(C)[C@H](C)C(=O)N[C@@H](CC(C)C)C(=O)N2CCC[C@H]2C(=O)O[C@@H]1C", "PAMPA (log10 cm/s)": "-5.22"}
{"smiles": "CC(=O)N1CCC[C@@H]1C(=O)N(C)[C@@H](CC(C)C)C(=O)N[C@@H]1C(=O)N(C)[C@H](CC(C)C)C(=O)N(C)[C@H](CC(C)C)C(=O)N[C@H](CC(C)C)C(=O)N(C)[C@@H](C)C(=O)N[C@H](CC(C)C)C(=O)N2CCC[C@@H]2C(=O)O[C@@H]1C", "PAMPA (log10 cm/s)": "-5.66"}
{"smiles": "CC(=O)N1CCC[C@H]1C(=O)N(C)[C@H](CC(C)C)C(=O)N[C@@H]1C(=O)N[C@@H](CC(C)C)C(=O)N(C)[C@@H](CC(C)C)C(=O)N(C)[C@H](CC(C)C)C(=O)N[C@H](C)C(=O)N[C@@H](CC(C)C)C(=O)N2CCC[C@@H]2C(=O)O[C@@H]1C", "PAMPA (log10 cm/s)": "-5.49"}
{"smiles": "CC(=O)N1CCC[C@H]1C(=O)N[C@@H]1C(=O)N[C@H](CC(C)C)C(=O)N(C)[C@H](CC(C)C)C(=O)N[C@@H](CC(C)C)C(=O)N(C)[C@@H](CC(C)C)C(=O)N[C@H](C)C(=O)N[C@@H](CC(C)C)C(=O)N2CCC[C@@H]2C(=O)O[C@@H]1C", "PAMPA (log10 cm/s)": "-5.10"}
{"smiles": "CC(=O)N1CCC[C@@H]1C(=O)N(C)[C@@H](CC(C)C)C(=O)N[C@@H]1C(=O)N[C@H](CC(C)C)C(=O)N(C)[C@@H](CC(C)C)C(=O)N(C)[C@H](CC(C)C)C(=O)N(C)[C@@H](C)C(=O)N[C@@H](CC(C)C)C(=O)N2CCC[C@@H]2C(=O)O[C@@H]1C", "PAMPA (log10 cm/s)": "-5.66"}
{"smiles": "CC(=O)N1CCC[C@H]1C(=O)N[C@@H]1C(=O)N[C@H](CC(C)C)C(=O)N(C)[C@H](CC(C)C)C(=O)N(C)[C@@H](CC(C)C)C(=O)N[C@H](CC(C)C)C(=O)N(C)[C@H](C)C(=O)N[C@@H](CC(C)C)C(=O)N2CCC[C@@H]2C(=O)O[C@@H]1C", "PAMPA (log10 cm/s)": "-5.00"}
{"smiles": "CC(=O)N1CCC[C@@H]1C(=O)N(C)[C@@H](CC(C)C)C(=O)N[C@@H]1C(=O)N[C@@H](CC(C)C)C(=O)N[C@H](CC(C)C)C(=O)N(C)[C@@H](CC(C)C)C(=O)N[C@@H](C)C(=O)N[C@H](CC(C)C)C(=O)N2CCC[C@H]2C(=O)O[C@@H]1C", "PAMPA (log10 cm/s)": "-6.14"}
{"smiles": "CC(=O)N1CCC[C@H]1C(=O)N[C@@H]1C(=O)N[C@H](CC(C)C)C(=O)N(C)[C@H](CC(C)C)C(=O)N[C@H](CC(C)C)C(=O)N(C)[C@H](CC(C)C)C(=O)N(C)[C@H](C)C(=O)N[C@@H](CC(C)C)C(=O)N2CCC[C@@H]2C(=O)O[C@@H]1C", "PAMPA (log10 cm/s)": "-5.47"}
{"smiles": "CC(=O)N1CCC[C@@H]1C(=O)N(C)[C@H](CC(C)C)C(=O)N[C@@H]1C(=O)N[C@H](CC(C)C)C(=O)N(C)[C@H](CC(C)C)C(=O)N[C@@H](CC(C)C)C(=O)N[C@@H](C)C(=O)N[C@H](CC(C)C)C(=O)N2CCC[C@@H]2C(=O)O[C@@H]1C", "PAMPA (log10 cm/s)": "-5.93"}

Extract of 2 entries:

compound	PAMPA (log10 cm/s)
CC(=O)N1CCC[C@@H]1C(=O)N(C)[C@H](CC(C)C)C(=O)N[C@@H]1C(=O)N[C@H](CC(C)C)C(=O)N[C@H](CC(C)C)C(=O)N[C@@H](CC(C)C)C(=O)N(C)[C@H](C)C(=O)N[C@H](CC(C)C)C(=O)N2CCC[C@H]2C(=O)O[C@@H]1C	-5.99
CC(=O)N1CCC[C@@H]1C(=O)N(C)[C@@H](CC(C)C)C(=O)N[C@@H]1C(=O)N(C)[C@H](CC(C)C)C(=O)N(C)[C@H](CC(C)C)C(=O)N[C@H](CC(C)C)C(=O)N(C)[C@@H](C)C(=O)N[C@H](CC(C)C)C(=O)N2CCC[C@@H]2C(=O)O[C@@H]1C	-5.66

Collected by the curators of CycPeptMPDB (Li et al. 2023) from Kelly et al. 2021, doi:10.1021/jacs.0c06115.